## Binding of CDR-mutated scFvs to a peptide of the spike HR2 region

Values reported by Engelhart et al. 2022, doi:10.1038/s41597-022-01779-4 (FLAb copy).

The target is the same throughout: PDVDLGDISGINAS, from the HR2 region of SARS-CoV-2 spike.

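The starting antibody came from a phage panning campaign against this peptide. AAYL52 was designed without a model: most single CDR substitutions and a random sample of double and triple ones. The scFvs were displayed on barcoded MATa yeast, the peptide on MATalpha yeast. Pairs that bind mate more often; barcode pairs of the diploids are counted by sequencing. Read counts were normalised to the haploid input and turned into Kd by a linear fit to BCL2-family pairs of known affinity, for each replicate. There are three technical replicates.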

Ab-95 is the parent antibody, in scFv form: VH, then a (GGGGS)3 linker, then VL. The heavy chain is unchanged in all variants.
VH: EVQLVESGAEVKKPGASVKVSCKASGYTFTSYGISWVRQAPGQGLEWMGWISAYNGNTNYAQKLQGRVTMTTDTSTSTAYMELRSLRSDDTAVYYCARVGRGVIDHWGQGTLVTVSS
VL: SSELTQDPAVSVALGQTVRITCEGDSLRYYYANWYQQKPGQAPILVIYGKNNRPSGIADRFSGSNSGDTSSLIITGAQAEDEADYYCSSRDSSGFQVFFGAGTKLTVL

Each variant's VL is given in full. The read-out is the apparent dissociation constant on a log10 scale (nM): the lower, the stronger. Averages over replicates are reported, and they cover detected replicates only. A pair that was not seen in that replicate is written "ND"; this usually means weak binding, but a binder can also be missed. Empty control strains, which show no peptide, gave a signal in 28% of pairings with library AAYL52; the median was 3.91 and 95% of these signals were weaker than 2.90. No background was subtracted. Also given: how often the same scFv was detected with the empty control strains, with their mean in brackets.

VL	log10 Kd, replicates	mean log10 Kd (nM)	control signals
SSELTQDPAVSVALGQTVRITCEHDSLRAYYANWYQQKPGQAPILVIYGKNNDPSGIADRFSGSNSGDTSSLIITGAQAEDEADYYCSSRDSSGFQVFFGAGTKLTVL	4.34 3.43 ND	3.88	2 of 9 (3.38)
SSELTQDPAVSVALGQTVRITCEGDYLRYYYANWYQQKPGQAPILVIYGPNNRPSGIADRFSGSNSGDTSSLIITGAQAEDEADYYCSSRDSSGFGVFFGAGTKLTVL	3.84 5.43 3.78	4.35	2 of 9 (3.82)
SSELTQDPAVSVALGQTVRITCWGDAIRYYYANWYQQKPGQAPILVIYGKNNRPSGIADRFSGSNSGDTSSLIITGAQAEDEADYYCSSRDSSGFQVFFGAGTKLTVL	ND 3.49 ND	3.49	0 of 9
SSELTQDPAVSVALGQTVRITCEGDSLRIYYANWYQQKPGQAPILVIYGKNGIPSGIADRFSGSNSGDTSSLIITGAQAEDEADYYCSSRDSSGFQVFFGAGTKLTVL	4.64 5.53 ND	5.08	5 of 9 (4.48)
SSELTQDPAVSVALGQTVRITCEGDSLRYYYANWYQQKPGQAPILVIYGKNNRPSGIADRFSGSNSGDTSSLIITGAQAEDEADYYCSSQDSSGFQDFFGAGTKLTVL	ND 3.46 ND	3.46	3 of 9 (3.71)
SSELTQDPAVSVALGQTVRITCEGDSLRYYYAHWYQQKPGQAPILVIYGKNNLPSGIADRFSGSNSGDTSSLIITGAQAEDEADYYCSSRDSSGMQVFFGAGTKLTVL	3.63 5.37 3.19	4.06	3 of 9 (4.52)
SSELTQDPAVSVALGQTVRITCEGISLRYYYANWYQQKPGQAPILVIYGKNNRPSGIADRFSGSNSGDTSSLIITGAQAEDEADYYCISRDSSGLQVFFGAGTKLTVL	3.16 3.90 ND	3.53	5 of 9 (3.81)
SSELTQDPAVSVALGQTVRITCELDSLRAYFANWYQQKPGQAPILVIYGKNNRPSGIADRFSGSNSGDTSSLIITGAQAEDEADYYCSSRDSSGFQVFFGAGTKLTVL	3.37 4.19 ND	3.78	2 of 9 (4.17)
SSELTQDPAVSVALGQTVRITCEGDSLRYYYANWYQQKPGQAPILVIYGKNNRPSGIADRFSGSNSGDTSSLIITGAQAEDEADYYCDSRDISGWQVFFGAGTKLTVL	3.00 ND ND	3.00	2 of 9 (3.73)
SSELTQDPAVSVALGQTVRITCEGDSLRYYYANWYQQKPGQAPILVIYGQNNQPSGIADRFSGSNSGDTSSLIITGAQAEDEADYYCSSRYSSGFQVFFGAGTKLTVL	ND ND ND	ND	2 of 9 (4.17)
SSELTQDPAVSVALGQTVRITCEGDSLIYYYNNWYQQKPGQAPILVIYGKNNRPSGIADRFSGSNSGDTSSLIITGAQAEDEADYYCSSRDSSGFQKFFGAGTKLTVL	3.18 3.64 ND	3.41	3 of 9 (3.97)
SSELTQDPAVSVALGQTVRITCEGDSARYYYANWYQQKPGQAPILVIYGKNNRLSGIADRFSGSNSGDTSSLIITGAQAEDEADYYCSSRDSPGFQVFFGAGTKLTVL	ND 3.66 ND	3.66	3 of 9 (3.39)
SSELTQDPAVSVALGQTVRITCEGDSLRYYYANWYQQKPGQAPILVIYGKGNRTSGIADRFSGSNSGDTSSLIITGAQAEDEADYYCSSRDSSGFQHFFGAGTKLTVL	3.82 5.35 3.99	4.39	5 of 9 (3.65)
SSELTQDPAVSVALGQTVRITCEGDSLRYYYAMWYQQKPGQAPILVIYGKNNRPSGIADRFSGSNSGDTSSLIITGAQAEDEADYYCSSRDSSGFQVIFGAGTKLTVL	ND ND 4.75	4.75	2 of 9 (3.82)
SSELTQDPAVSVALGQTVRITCEGDSLRYYYANWYQQKPGQAPILVIYGQNNRPSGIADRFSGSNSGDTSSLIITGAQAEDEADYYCSSRQSSGFQVFFGAGTKLTVL	2.86 2.69 3.00	2.85	0 of 9
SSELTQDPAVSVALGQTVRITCEHDWLRYYYANWYQQKPGQAPILVIYGKNNRPSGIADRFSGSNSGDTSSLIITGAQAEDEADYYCSSRDSSGSQVFFGAGTKLTVL	3.56 3.44 3.86	3.62	3 of 9 (3.41)
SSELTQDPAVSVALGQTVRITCSGDSLRYYYANWYQQKPGQAPILVIYGKNQRPSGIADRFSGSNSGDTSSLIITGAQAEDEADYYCSSRDSSGFNVFFGAGTKLTVL	1.61 1.62 1.11	1.45	1 of 9 (3.40)
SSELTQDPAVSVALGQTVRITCWGDSLRYYQANWYQQKPGQAPILVIYGKNNRPSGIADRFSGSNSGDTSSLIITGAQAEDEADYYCSTRDSSGFQVFFGAGTKLTVL	2.63 1.97 1.83	2.14	2 of 9 (4.85)
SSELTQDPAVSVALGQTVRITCEGDSLRYYTANWYQQKPGQAPILVIYGKNNRPSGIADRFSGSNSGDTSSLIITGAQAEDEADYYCSSQDSSGFQVFFGAGTKLTVL	2.73 2.21 2.44	2.46	3 of 9 (4.02)
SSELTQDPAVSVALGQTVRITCEGDSLRYYYANWYQQKPGQAPILVIYGTNNRPDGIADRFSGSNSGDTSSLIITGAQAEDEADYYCSSRWSSGFQVFFGAGTKLTVL	2.95 2.11 3.65	2.90	5 of 9 (3.26)